Laboratory results: ChEMBL document CHEMBL1143702, “Synthesis and biological evaluation of (+/-)-abyssinone II and its analogues as aromatase inhibitors for chemoprevention of breast cancer” (J Med Chem, 2007)

Amino acid sequences for entries named in this document (tags omitted). A change or cut given only in a name is not applied to a line headed by its entry.
UniProt P11511: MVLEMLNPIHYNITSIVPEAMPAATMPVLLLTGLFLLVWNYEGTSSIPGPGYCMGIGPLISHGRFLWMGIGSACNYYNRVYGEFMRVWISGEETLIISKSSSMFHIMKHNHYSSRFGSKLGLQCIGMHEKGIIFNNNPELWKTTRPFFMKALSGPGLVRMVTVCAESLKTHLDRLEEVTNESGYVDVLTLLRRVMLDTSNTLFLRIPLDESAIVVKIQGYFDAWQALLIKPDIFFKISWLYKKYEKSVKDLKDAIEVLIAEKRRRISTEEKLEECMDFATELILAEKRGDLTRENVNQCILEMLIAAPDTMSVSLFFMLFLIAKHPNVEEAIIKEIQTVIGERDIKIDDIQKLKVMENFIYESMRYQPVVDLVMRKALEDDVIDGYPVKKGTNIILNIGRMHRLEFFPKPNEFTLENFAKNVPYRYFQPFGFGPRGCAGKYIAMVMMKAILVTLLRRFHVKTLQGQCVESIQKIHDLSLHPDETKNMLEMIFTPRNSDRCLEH

Target: Aromatase (Homo sapiens, UniProt P11511)

IC50: 40.9 µM
SMILES: CC(C)=CCc1cc([C@@H]2CC(=O)c3ccc(O)cc3O2)ccc1O [ABYSSINONE II]
